Data from ChEMBL document CHEMBL1134501, “Structure-activity studies for a novel series of bicyclic substituted hexahydrobenz[e]isoindole alpha1A adrenoceptor antagonists as potential agents for the symptomatic treatment of benign prostatic hyperplasia” (J Med Chem, 2001).

Protein sequences, listed by entry. Tags and fused reporters are not part of them.
UniProt P23944, whole entry: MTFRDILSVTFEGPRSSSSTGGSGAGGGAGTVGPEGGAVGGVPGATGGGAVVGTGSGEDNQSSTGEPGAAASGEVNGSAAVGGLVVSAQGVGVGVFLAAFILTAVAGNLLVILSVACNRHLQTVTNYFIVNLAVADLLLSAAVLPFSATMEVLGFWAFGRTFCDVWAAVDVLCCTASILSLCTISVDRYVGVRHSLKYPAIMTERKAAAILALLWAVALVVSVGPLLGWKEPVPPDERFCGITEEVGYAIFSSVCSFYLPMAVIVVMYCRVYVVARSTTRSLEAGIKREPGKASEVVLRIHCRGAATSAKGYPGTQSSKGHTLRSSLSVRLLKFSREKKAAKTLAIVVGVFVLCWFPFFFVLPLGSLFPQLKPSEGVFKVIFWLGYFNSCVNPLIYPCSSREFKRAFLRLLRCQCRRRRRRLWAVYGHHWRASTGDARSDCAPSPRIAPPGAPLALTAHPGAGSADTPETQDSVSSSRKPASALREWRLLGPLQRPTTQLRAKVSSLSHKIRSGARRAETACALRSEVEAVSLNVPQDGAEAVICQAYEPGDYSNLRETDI

Assays:
[1] = target: T1, Alpha-1A adrenergic receptor (Rattus norvegicus, UniProt P43140); assay: Binding affinity to alpha-1A adrenergic receptor in rat submaxillary gland; assay type: tissue-based
T1 sequence (P43140 whole entry): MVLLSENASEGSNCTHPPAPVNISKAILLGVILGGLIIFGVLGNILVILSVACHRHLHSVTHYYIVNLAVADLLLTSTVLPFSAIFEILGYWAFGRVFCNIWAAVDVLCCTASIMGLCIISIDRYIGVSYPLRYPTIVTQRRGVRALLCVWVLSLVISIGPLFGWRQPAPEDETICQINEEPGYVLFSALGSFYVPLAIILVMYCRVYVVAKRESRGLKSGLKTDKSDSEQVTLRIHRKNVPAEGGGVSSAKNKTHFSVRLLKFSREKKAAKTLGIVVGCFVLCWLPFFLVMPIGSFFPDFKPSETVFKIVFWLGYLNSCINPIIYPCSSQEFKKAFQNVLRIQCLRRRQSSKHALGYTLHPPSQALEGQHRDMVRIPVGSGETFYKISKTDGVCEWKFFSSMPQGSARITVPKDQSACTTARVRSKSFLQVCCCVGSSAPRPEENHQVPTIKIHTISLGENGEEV

[2] = target: Alpha-1D adrenergic receptor (Rattus norvegicus, UniProt P23944); assay: Binding affinity to rat alpha-1D adrenergic receptor expressed in LTK cells; assay type: cell-based

Ki [1] [nM]	Ki [2] [nM]	SMILES
0.57	0.58	COc1cccc2c1CC[C@H]1CN(CCn3c(=O)[nH]c4cc(Cl)ccc4c3=O)C[C@@H]21
1.19	–	COc1cccc2c1CC[C@H]1CN(CCn3c(=O)[nH]c4ncccc4c3=O)C[C@@H]21
